{
  "sequences": {"note": "Protein sequences, listed by entry. Tags and fused reporters are not part of them. Lines headed by an entry give the natural chain unless they say otherwise; changes in a name come on top.", "UniProt Q969S8": "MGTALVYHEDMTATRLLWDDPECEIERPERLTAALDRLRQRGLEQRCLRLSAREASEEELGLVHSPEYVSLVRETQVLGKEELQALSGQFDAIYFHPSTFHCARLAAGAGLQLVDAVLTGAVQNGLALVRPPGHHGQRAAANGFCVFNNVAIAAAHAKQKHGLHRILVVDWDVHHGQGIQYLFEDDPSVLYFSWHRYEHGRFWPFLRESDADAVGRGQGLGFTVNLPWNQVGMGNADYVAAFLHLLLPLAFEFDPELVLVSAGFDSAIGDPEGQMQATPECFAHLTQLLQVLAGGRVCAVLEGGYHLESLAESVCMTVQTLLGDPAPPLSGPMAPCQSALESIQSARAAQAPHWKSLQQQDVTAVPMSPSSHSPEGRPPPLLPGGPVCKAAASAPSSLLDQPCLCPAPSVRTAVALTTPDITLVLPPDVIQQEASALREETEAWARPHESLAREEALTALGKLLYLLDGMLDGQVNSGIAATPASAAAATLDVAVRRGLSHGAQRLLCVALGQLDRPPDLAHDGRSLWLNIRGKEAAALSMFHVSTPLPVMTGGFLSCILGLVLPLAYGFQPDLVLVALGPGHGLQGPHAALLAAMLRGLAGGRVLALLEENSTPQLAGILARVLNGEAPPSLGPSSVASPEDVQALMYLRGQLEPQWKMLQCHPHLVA"},
  "source": "patent US8664182B2",
  "about": "“Methods of inhibiting cancer cell growth with HDAC inhibitors and methods of screening for HDAC10 inhibitors” (Duke University, priority 2008, dated 2014)",
  "origin": "cited, not measured here",
  "biological_target": "HDAC10 (Homo sapiens, UniProt Q969S8)",
  "conditions": "Hess-Stumpp et al. (2007); cited from earlier work",
  "data": [
    {"smiles": "Nc1ccccc1NC(=O)c1ccc(CNC(=O)OCc2cccnc2)cc1", "note": "[MS-275]", "values": [
      {"measurement": "inhibition of HDAC10", "result": "does not effectively inhibit HDAC10"}
    ]}
  ]
}
